In article PMC9430770, “Baicalein Acts against Candida albicans by Targeting Eno1 and Inhibiting Glycolysis” (Microbiology Spectrum, 2022):

Assays:
Eno1 (CaEno1) [1] = target: T1, Eno1 (CaEno1) (Candida albicans, UniProt P30575); details: SPR
T1 sequence (P30575 1-440): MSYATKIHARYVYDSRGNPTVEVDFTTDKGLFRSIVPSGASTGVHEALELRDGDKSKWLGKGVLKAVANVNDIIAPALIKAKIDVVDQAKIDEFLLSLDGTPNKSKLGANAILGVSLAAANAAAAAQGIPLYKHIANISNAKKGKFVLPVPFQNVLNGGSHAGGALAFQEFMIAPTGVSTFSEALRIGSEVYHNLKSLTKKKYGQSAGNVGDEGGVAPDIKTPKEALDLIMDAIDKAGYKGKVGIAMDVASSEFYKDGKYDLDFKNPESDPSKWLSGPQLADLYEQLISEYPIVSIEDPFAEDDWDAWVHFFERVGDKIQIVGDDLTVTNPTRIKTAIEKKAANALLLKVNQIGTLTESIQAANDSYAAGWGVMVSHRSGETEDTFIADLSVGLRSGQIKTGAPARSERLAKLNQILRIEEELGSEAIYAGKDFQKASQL

Eno1 (CaEno1) [2] = target: T1, Eno1 (CaEno1); test: biochemical; details: for Kd: SPR
CaEno1 = target: T2, CaEno1 (Candida albicans, UniProt P30575); test: biochemical
T2 sequence (P30575 1-440): T1 sequence (P30575 1-440)

[3] = target: interaction of Eno1 and PLG (Candida albicans, UniProt P30575); test: biochemical

## O=c1cc(-c2ccccc2)oc2cc(O)c(O)c(O)c12 [BE, Baicalein]
Eno1 (CaEno1) [1]
  theoretical stoichiometric ratio (SR): around 1.03
Eno1 (CaEno1) [2]; affinity constant KD, kinetic model
  Kd: 8.12 µM
Eno1 (CaEno1) [2]; binding affinity KD, steady-state affinity analysis
  Kd: 7.93 µM
Eno1 (CaEno1) [2]; read-out: association rate constant ka
  kon: 1230 M⁻¹ s⁻¹
Eno1 (CaEno1) [2]; read-out: dissociation rate constant Kd
  koff: 0.01 s⁻¹
CaEno1
  IC50: 62.9 ± 2.2 µM
[3]
  IC50: 2.95 µM
